Key:
ORL 1-receptor = ORL 1-receptor (Homo sapiens, UniProt P41146); test: ORL 1 receptor binding assay with 3H-nociceptin/orphanin FQ, membranes of recombinant CHO-ORL 1 cells; conditions: read-out: Ki (ORL1) Mean; comparison table
human μ-opiate receptor = human μ-opiate receptor (Homo sapiens, UniProt P35372); conditions: for Ki (μ)/Ki (ORL1): ratio, comparison table Q=(hetero)aryl vs Q=H; for Ki: read-out: Ki (μ) Mean, comparison table
kappa-opioid receptor = kappa-opioid receptor (Homo sapiens, UniProt P41145); conditions: for Ki: read-out: Ki (kappa) Mean, comparison table

Amino acid sequences for entries named in this document (tags omitted).
UniProt P41146, whole entry: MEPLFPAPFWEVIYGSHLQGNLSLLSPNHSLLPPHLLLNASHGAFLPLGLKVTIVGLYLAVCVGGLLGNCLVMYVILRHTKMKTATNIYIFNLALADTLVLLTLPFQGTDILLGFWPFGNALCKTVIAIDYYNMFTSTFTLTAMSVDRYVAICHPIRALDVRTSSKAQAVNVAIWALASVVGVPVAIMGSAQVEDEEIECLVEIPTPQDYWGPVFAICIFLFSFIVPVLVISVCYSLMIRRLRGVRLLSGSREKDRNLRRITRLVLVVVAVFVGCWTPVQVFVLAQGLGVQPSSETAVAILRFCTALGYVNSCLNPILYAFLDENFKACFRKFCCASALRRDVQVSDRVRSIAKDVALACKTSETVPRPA
UniProt P35372, whole entry: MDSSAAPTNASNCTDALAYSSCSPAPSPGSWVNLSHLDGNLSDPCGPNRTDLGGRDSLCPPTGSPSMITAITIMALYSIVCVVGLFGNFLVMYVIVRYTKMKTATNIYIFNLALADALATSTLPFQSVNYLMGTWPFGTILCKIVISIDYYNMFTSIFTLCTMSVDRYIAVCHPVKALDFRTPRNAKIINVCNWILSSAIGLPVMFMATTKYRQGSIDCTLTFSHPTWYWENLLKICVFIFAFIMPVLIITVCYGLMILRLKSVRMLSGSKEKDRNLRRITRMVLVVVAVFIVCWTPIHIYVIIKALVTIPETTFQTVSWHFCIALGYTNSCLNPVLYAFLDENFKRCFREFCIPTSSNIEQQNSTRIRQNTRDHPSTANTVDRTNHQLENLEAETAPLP
UniProt P41145, whole entry: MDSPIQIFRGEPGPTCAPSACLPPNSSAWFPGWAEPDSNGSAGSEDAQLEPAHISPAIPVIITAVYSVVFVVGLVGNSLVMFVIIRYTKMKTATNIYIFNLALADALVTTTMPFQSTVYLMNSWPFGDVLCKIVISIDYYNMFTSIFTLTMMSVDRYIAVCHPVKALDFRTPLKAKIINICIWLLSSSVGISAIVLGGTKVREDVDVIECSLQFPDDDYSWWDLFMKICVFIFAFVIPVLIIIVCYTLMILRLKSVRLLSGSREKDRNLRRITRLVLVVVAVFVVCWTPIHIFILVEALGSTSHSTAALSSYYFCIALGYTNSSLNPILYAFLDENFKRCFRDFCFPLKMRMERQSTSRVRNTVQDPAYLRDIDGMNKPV

SMILES	Ki (ORL 1-receptor) [nM]	Ki (μ)/Ki (ORL1) (human μ-opiate receptor)	Ki (human μ-opiate receptor) [nM]	Ki (kappa)/Ki (ORL1) (kappa-opioid receptor; ratio, comparison table Q=(hetero)aryl vs Q=H)	Ki (kappa-opioid receptor) [nM]	Inhibition (kappa) at [1 μM] (kappa-opioid receptor; test concentration 1 μM, printed in Ki (kappa) column) [%]
CN(C)C1(c2cccs2)CCC(c2[nH]c3ccccc3c2CCc2ccncc2)CC1 (centres unmarked)	153	1.2	197	1.0	153	
Cc1c(C2CCC(c3ccccc3)(N(C)C)CC2)[nH]c2ccccc12 (single isomer, unassigned) [Comparison 2]	0.9		0.4		1.2	
Cc1c(C2CCC(c3ccccc3)(N(C)C)CC2)[nH]c2ccccc12 (single isomer, unassigned) [Comparison 3]	14		13			
Cc1c(C2CCC(c3ccccc3)(N(C)C)CC2)oc2ccccc12 (centres unmarked)	39	0.1	5			31

Source: patent US7977370B2, “(Hetero)aryl cyclohexane derivatives” (dated 2011)
